Reference: PubChem BioAssay AID720551 (National Center for Advancing Translational Sciences (NCATS), 2013)
The entries are a selection whose mix differs from that of the whole data set. Active and inactive are the calls of the source.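 Rule for the calls: active = maximum activity change below -70%; inconclusive = maximum activity change between -70% and -50%; inactive = maximum activity change above -50%.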

Protein sequences, listed by entry. Tags and fused reporters are not part of them. Lines headed by an entry give the natural chain unless they say otherwise; changes in a name come on top.
UniProt Q12809: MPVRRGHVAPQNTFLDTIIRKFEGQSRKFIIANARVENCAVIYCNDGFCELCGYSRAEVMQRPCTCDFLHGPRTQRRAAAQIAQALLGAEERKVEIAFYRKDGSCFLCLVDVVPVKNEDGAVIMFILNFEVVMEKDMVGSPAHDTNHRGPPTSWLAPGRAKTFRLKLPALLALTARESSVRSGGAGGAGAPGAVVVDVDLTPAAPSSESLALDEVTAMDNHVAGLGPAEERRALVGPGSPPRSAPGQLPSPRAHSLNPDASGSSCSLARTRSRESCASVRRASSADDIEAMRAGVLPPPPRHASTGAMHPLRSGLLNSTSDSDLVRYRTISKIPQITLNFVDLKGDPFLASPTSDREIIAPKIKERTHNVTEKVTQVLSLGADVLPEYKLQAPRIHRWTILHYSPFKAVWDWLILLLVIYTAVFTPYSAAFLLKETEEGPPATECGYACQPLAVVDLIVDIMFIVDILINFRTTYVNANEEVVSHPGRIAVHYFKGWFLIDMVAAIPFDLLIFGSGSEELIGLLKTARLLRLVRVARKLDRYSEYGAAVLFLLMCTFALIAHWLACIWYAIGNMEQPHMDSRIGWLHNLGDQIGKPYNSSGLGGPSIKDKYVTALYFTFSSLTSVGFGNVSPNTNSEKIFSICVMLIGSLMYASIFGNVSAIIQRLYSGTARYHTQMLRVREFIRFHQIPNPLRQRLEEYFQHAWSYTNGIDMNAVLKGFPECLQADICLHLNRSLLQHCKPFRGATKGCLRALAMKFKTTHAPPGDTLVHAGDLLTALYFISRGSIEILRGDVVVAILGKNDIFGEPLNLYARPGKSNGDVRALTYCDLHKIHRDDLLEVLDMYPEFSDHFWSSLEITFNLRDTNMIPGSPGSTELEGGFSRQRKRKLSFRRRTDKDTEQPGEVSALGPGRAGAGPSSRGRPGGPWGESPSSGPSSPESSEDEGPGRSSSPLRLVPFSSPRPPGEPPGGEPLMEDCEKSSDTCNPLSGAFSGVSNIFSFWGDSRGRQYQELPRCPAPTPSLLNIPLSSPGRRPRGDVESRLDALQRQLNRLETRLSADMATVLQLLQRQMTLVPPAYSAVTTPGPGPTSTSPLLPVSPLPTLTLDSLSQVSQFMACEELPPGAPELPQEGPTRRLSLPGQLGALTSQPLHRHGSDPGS

Each compound was assayed against Voltage-gated inwardly rectifying potassium channel KCNH2 (Homo sapiens) (UniProt Q12809) (assay: qHTS for Inhibitors of KCHN2 3.1: Wildtype qHTS). Settings: U2OS, BacMam KCNH2, thallium flux FluxOr; at 1.84 µM, active compounds read low.
Method in brief: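 U2OS cells were transduced with wild-type KCNH2 virus (2.03 x 10^8 / mL) for 4 h at room temperature, then cultured overnight at 37 C. Thallium flux was read with FluxOr dye. Rate constants were normalized to DMSO controls.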
% is set by controls: 0 for no effect and ±100 for the full control effect.

Compound	activity change
Cc1ccc(NP(=O)(Oc2cccc(C)c2)Oc2cccc(C)c2)nc1	inactive: 2.49%
O=P1(N(CCCl)CCCl)OCCC2CCCCN21 (centres undefined)	inactive: 0.941%
COC(=O)c1cc2c(s1)N=C(c1ccccc1)N(C)P2(=O)N1CCOCC1 (centres undefined)	inactive: -2.52%
CC(=O)NC(SC(=S)N(CC(C)C)CC(C)C)C(Cl)(Cl)Cl (centres undefined)	inactive: 6.25%
Cc1ccc(OP(=O)(Nc2ccccn2)Oc2ccc(C)cc2)cc1	inactive: -19.6%
O=C(OC1CN2CCC1CC2)c1ccccc1 (centres undefined)	inactive: -0.79%
CCC(=O)N1C2C3N(C(=O)CC)C1C1N(C(=O)CC)C(C(N1C(=O)CC)N3C(=O)CC)N2C(=O)CC	inactive: 3.9%
Cc1ccccc1OP(=O)(Nc1ccccn1)Oc1ccccc1C	inactive: 3.5%
CC(NC(=O)COC(=O)C(O)(c1ccccc1)c1ccccc1)c1ccccc1 (centres undefined)	inactive: -18.1%
CN(C)C(=O)Oc1noc2ccccc12	inactive: 13.7%
O=c1c2cc([N+](=O)[O-])ccc2[nH]c2c([N+](=O)[O-])cc([N+](=O)[O-])cc12	inactive: 6.18%
O=P1(Nc2nc3ccc(Cl)cc3s2)COc2ccccc2O1 (centres undefined)	inactive: -17.8%
CCOc1ccc(C2=NCC(CBr)S2)cc1 (centres undefined)	inactive: -4.17%
CCc1cc(O)c([N+](=O)[O-])c(C)c1[N+](=O)[O-]	inactive: -3.63%
CC(C)(C)C(=O)NC(Sc1ccccc1)C(Cl)(Cl)Cl (centres undefined)	inactive: -18.8%
N#C/C(=C\c1ccc(N(CCBr)CCBr)cc1)C(N)=O	inactive: -3.45%
CC(=O)c1ccc(N2CC2c2ccncc2)cc1 (centres undefined)	inactive: -4.06%
COC(=O)C1(C)COP(=O)(NCc2ccccc2)OC1 (centres undefined)	inactive: 12.1%
Cc1ccccc1CN(C)C(=O)COC(=O)C(O)(c1ccccc1)c1ccccc1	inactive: 10.1%
C[C@@H]1C=CCP(=O)(Oc2ccccc2)O1 (some centres undefined)	inactive: -4.3%
C[C@H]1OP(=O)(Oc2ccccc2)C[C@@H]2O[C@@H]21 (some centres undefined)	inactive: 0.568%
CC(=O)Nc1ccc([As](=O)(O)O)c(O)c1	inactive: -2.18%

Compound	activity change
CC(=O)Nc1ccc(Oc2c([N+](=O)[O-])cc([N+](=O)[O-])cc2[N+](=O)[O-])cc1	inactive: -6.37%
CN(C(=O)Cc1ccc(Cl)c(Cl)c1)[C@H]1CCCC[C@H]1N1CCCC1	inactive: 25%
Cc1ccc(N/C(=N/P(=O)(N2CCOCC2)N2CCOCC2)N2CCOCC2)cc1	inactive: -4.91%
COc1ccccc1OP(=O)(Nc1ccc(C)cn1)Oc1ccccc1OC	inactive: 0.101%
Cc1ccc(OP(=O)(Nc2nccs2)Oc2ccc(C)cc2)cc1	inactive: 4.73%
Clc1ccc(Cl)c(NC2=NCC(CBr)S2)c1 (centres undefined)	inactive: 1.1%
CN1CCCC(OC(=O)C(c2ccccc2)c2ccccc2)C1 (centres undefined)	inactive: 29.9%
CC(C)CC(=O)NC(Sc1ccc(Cl)cc1)C(Cl)(Cl)Cl (centres undefined)	inactive: 9.41%
Nc1cc(N)c2nonc2c1[N+](=O)[O-]	inactive: 1.32%
Oc1ccccc1CNc1ccccn1	inactive: 1.98%
O=C(NC(Sc1ccncn1)C(Cl)(Cl)Cl)c1ccccc1 (centres undefined)	inactive: 20.8%
O=C(O)c1ccccc1[As](=O)(O)O	inactive: -9.11%
CC(=O)Nc1ccc([As](=O)(O)O)cc1	inactive: -6.04%
CCCC1OP(N)(=O)OCC1CC (centres undefined)	inactive: -2.64%
CN(C)P(=O)(N(C)C)n1c(Nc2ccccc2)nnc1-c1ccccc1	active: -143%
O=P(Nc1nc2ccc(Cl)cc2s1)(c1ccccc1)c1ccccc1	inactive: -1.57%
CCOP(=O)(Nc1ccccc1)OCC	inactive: 6.04%
Cc1cc(SC(NC(=O)c2ccc(F)cc2)C(Cl)(Cl)Cl)ncn1 (centres undefined)	inactive: 2.82%
Cc1ccc(NP(=O)(Oc2ccccc2F)Oc2ccccc2F)nc1	inactive: -6.97%
CN(C(=O)Cc1ccc(Cl)c(Cl)c1)[C@H]1CCCC[C@@H]1N1CCCC1	inactive: 60%
CCN(N=Nc1nonc1N)c1nonc1N	inactive: 1.63%
Nc1cccc2ccc([As](=O)(O)O)cc12	inactive: 10.9%

Compound	activity change
O=P1(N(CCCl)CCCl)OCCCS1 (centres undefined)	inactive: -0.18%
O=C(Nc1cc([As](=O)(O)O)ccc1O)c1ccccc1	inactive: -5.24%
CC(C)(C)C(=O)NC(Sc1ccncn1)C(Cl)(Cl)Cl (centres undefined)	inactive: -5.89%
O=[N+]([O-])c1cccc(NC2=NCC(CBr)S2)c1 (centres undefined)	inactive: 0.752%
COC(=O)C1(C)COP(=O)(Nc2ccccc2)OC1 (centres undefined)	inactive: 16.6%
O=C(O)CNc1ccc([As](=O)(O)O)cc1	inactive: 1.22%
COc1ccc(C2=NCC(CBr)S2)cc1 (centres undefined)	inactive: 9.26%
O=[N+]([O-])c1cccc2n[nH]nc12	inactive: 15.6%
CC(=O)N1C2C3N(C(C)=O)C1C1N(C(C)=O)C(C(N1C(C)=O)N3C(C)=O)N2C(C)=O	inactive: 4.17%
Cc1ccc(NP(=O)(Oc2ccccc2)Oc2ccccc2)nc1	inactive: -1.91%
CCc1nc2c(n1)c1c(non1O)c1c2no[n+]1[O-]	inactive: -2.15%
O=[N+]([O-])c1cc([N+](=O)[O-])c(CCNc2ccccc2)c([N+](=O)[O-])c1	inactive: -8.37%
Nc1ccc([As](=O)(O)c2ccc(N)cc2)cc1	inactive: -3.19%
C[N+]1=C2C=CC=CC=C2SC12C([N+](=O)[O-])=CC([N+](=O)[O-])=C[C-]2[N+](=O)[O-] (centres undefined)	inactive: -22.7%
CCN(/C(=N/P(=O)(N1CCOCC1)N1CCOCC1)N1CCOCC1)c1ccc(OC)cc1	inactive: -7.15%
CC(C)=N/N=C(\N)N[N+](=O)[O-]	inactive: -5.77%
CC(C)c1nc(Nc2ccccc2)n(P(=O)(N(C)C)N(C)C)n1	inactive: -4.86%
CN(C)C(=O)OCCc1n(C)cc[n+]1C	inactive: -6.48%
c1cc(-c2nn[nH]n2)ccc1-c1nn[nH]n1	inactive: -4.56%
CC1CCN(C(=O)Oc2c(Cl)cc(Cl)c3cccnc23)CC1	inactive: 0.894%
